# Nrf2 block = inhibitors of Nrf2 signaling; A549 ARE-Fluc reporter, luciferase luminescence, 18-24 h; Potency, µM (highest dose often 46 µM), without a hit: top-dose activity change, negative = inhibition, usual class: inhibitors; 2.1% of 360,000 active; AID 504444; also: potency is read from the fitted curve at half-maximal effect; % is scaled to controls: 0 for no effect and ±100 for the full control effect; nearly all actives have a fitted effect of over 60% in size
#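 Two sequential reads on A549 ARE_Fluc cells exposed to compound for 18-24 h: a CellTiter-Fluor fluorescence read for viability, then a luciferase luminescence read for Nrf2/ARE activity.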
# Nrf2 activator = activates Nrf2 signaling; AREc32 ARE-luciferase reporter (MCF7-derived line), luminescence, 24 h; Potency, µM (titrated, usually from 46.1 µM), without a hit: at the highest dose activation, most hits filed as activators; 0.31% of 410,000 active; AID 624171; also: potency is read from the fitted curve at half-maximal effect; % of control where 0% means no effect; nearly all actives have a fitted effect of over 65% in size
#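 Each well held 1000 AREc32 cells, which were incubated with compound for 24 hr at 37 deg C after overnight attachment, and ARE reporter activity was quantified by firefly luciferase luminescence.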
# GALK inhibitor = blocks human galactokinase activity; P51570; Purified GALK, Kinase-Glo residual ATP luminescence; Potency, µM (doses to about 57.5 µM), for inactives: top-dose activity change, negative = inhibition, usual class: inhibitors; 0.007% of 270,000 active; also: potency is read from the fitted curve at half-maximal effect; % is scaled to controls: 0 for no effect and ±100 for the full control effect
#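 ATP-depletion format; final 35 uM ATP, 100 uM D-galactose, 5 nM enzyme; pH 8.0 HEPES/Mg2+ buffer; 60 min RT; luminescence read 10 min after detection reagent.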
# miR-21 reporter = raises the signal of a miR-21 reporter | HeLa miR-21 FLuc reporter, luciferase, 48 h | Potency, µM (doses to about 38.3 µM), without a hit: at the top dose reporter change, positive = more light | 340,000 tested, under 10 active | AID 2288; active = well fitted rising curve with a large enough effect; inconclusive = small, poorly fitted or top-dose-only effect; inactive = no such curve, though single readings can be large or run the other way;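 note: % of control where 0% means no effect; miR-21 action dims this reporter so a rising signal means less miR-21 action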
#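 HeLa miR-21-FLuc reporter line, endogenous miR-21; 2000 cells/well in DMEM/10% FBS; compound titration up to ~40uM final, 48 h, 37 degree Celsius; luciferase detection reagent, 15 min lysis, CCD luminescence.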
# A549 tox-1 = A549 cytotoxicity, counter-screen for Nrf2 inhibitors; Potency, µM (highest dose often 46 µM), for inactives: at the highest dose activity change, negative = cytotoxicity, most hits filed as inhibitors; A549 ARE-Fluc cells, CellTiter-Fluor viability, 18-24 h; 0.16% of 390,000 active; AID 504648; also: potency is read from the fitted curve at half-maximal effect; % is scaled to controls: 0 for no effect and ±100 for the full control effect
#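 Cytotoxicity counterscreen: CellTiter-Fluor fluorescence was measured in A549 ARE_Fluc cells after 18-24 h of compound exposure in a concentration series. The subsequent BugLite luminescent read reports ARE-luciferase activity.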
# PI4K2A inh = blocks human PI4K2A kinase activity | purified PI4K2A, ADP-Glo luminescence, 1 h; active compounds read low | activity change, negative = inhibition, % at 76.9 µM | 0.13% of 420,000 active | AID 1346378; in the data active = activity change below about -50%; inconclusive = mostly about -30% to -49%;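 also: -100% = wells without enzyme as full effect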
#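 ADP-Glo luminescence measured ADP generated by PI4K2A enzyme (4 ug/mL before mixing) with 1.2 mM PI substrate (pre-mix) and 300 microM ATP (pre-mix). Tris pH7.5 buffer with MgCl2, Triton X-100; 1 h reaction at ambient temperature.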
# FLuc counter 3 = blocks purified firefly luciferase in Nrf2 counterscreen; shares compounds with Nrf2 block; 4% of 1,400 active; AID 720522; Potency, µM (titrated, usually from 57.5 µM), for inactives: at the top dose activity change, negative = inhibition, actives largely listed as inhibitors; purified firefly luciferase, luminescence inhibition; also: potency is read from the fitted curve at half-maximal effect; % is scaled to controls: 0 for no effect and ±100 for the full control effect; nearly all actives have a fitted effect of over 65% in size
# A549 tox-2 = counter-screen for Nrf2 inhibitors: cytotoxicity in A549 ARE cells | shares compounds with Nrf2 block | A549 ARE-Fluc cells, cytotoxicity counterscreen | Potency, µM (titrated, usually from 46.1 µM), inactives show top-dose activity change, negative = cytotoxicity, usual class: inhibitors | 2% of 1,400 active | AID 720523;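 also: potency is read from the fitted curve at half-maximal effect; cells exposed to compounds for 18 to 24 hours; % is scaled to controls: 0 for no effect and ±100 for the full control effect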
# ARE-Fluc inh = confirmation of Nrf2 inhibitors in A549 ARE reporter cells | A549 ARE-firefly luciferase reporter, luminescence | 74% of 1,400 active | Potency, µM (doses to about 46.1 µM), for inactives: at the top dose activity change, negative = inhibition, actives largely listed as inhibitors | shares compounds with Nrf2 block; also: potency is read from the fitted curve at half-maximal effect; % is scaled to controls: 0 for no effect and ±100 for the full control effect; nearly all actives have a fitted effect of over 65% in size
# * marks the source's active call; other numbers are inactive results; u = inconclusive; x = no result given. A selection: hits, their analogues and other compounds. The true share with any hit is near 2.2%. Unless noted, calls follow the shape of the dose curve; as a rule, active = well fitted curve in the direction sought with a large enough effect; inconclusive = small, poorly fitted or top-dose-only effect, or another doubt; inactive = no such curve, though single readings can be large; an effect the other way counts as inactive or inconclusive.
# Field names: A = Nrf2 block; B = Nrf2 activator; C = GALK inhibitor; D = miR-21 reporter; E = A549 tox-1; F = PI4K2A inh; G = FLuc counter 3; H = A549 tox-2; I = ARE-Fluc inh
compound: COc1ccc(CCN(C)c2ccc(S(=O)(=O)N3CCCC3)cc2[N+](=O)[O-])cc1OC
  A: u | B: 4% | C: -2% | D: -4% | E: -20% | F: -1 | G: x | H: x | I: x

compound: COc1ccc(CN(C)c2ccc(S(=O)(=O)N3CCN(C)CC3)cc2[N+](=O)[O-])cc1OC
  A: 1.3µM* | B: -1% | C: x | D: x | E: -3% | F: 4 | G: -28% | H: 2% | I: u

compound: C[C@@H]1/C=C/CC(=O)N[C@H](c2ccc3ccccc3c2)[C@H](C)/C=C/CC(=O)N[C@@H]1c1ccc2ccccc2c1
  A: x | B: x | C: x | D: x | E: x | F: -2 | G: x | H: x | I: x

compound: O=C(CSC1=NCCS1)Nc1ccnc2ccccc12
  A: 5.2µM* | B: 11% | C: -3% | D: 13% | E: -15% | F: 1 | G: -2% | H: -11% | I: 7.3µM*

compound: Cc1cc(C)nc(SCC(=O)Nc2ccnc3ccccc23)n1
  A: 1.2µM* | B: 3% | C: 0% | D: 13% | E: u | F: 1 | G: -2% | H: -9% | I: -24%

compound: CCOC(=O)CC[C@@]1(C(=O)OCC)C[C@@H](CC(=O)N2CCN(C(=O)c3ccco3)CC2)C(=O)N2CCCC=C21
  A: x | B: x | C: x | D: x | E: x | F: -5 | G: x | H: x | I: x

compound: Cc1ccsc1-c1nc(CSCC(=O)N2CCN(c3ccccc3)CC2)c(C)o1
  A: u | B: 3% | C: 1% | D: 16% | E: 3% | F: -2 | G: x | H: x | I: x

compound: COc1ccc(-c2nc(CSCC(=O)N3CCN(c4ccccc4)CC3)c(C)o2)cc1
  A: 2.6µM* | B: -1% | C: x | D: u | E: u | F: 0 | G: -17% | H: -22% | I: u

compound: Cc1ccccc1SCC(=O)N1CCN(c2ccc(C(F)(F)F)cn2)CC1
  A: 3.7µM* | B: 1% | C: -3% | D: -1% | E: -1% | F: -1 | G: -1% | H: -4% | I: u

compound: CCN(CC)S(=O)(=O)c1ccc(C)c(NC(=S)N2CCN(Cc3ccc4c(c3)OCO4)CC2)c1
  A: 6.5µM* | B: 0% | C: 2% | D: 25% | E: -14% | F: -4 | G: -1% | H: 1% | I: 10µM*

compound: Cc1ccc(NC(=S)N2CCN(Cc3ccc4c(c3)OCO4)CC2)c(C)c1
  A: u | B: -1% | C: x | D: x | E: 12% | F: -2 | G: x | H: x | I: x

compound: COc1ccc(NS(=O)(=O)c2ccc(NC(=O)c3ccc(N(C)S(C)(=O)=O)cc3)cc2)c(OC)c1
  A: 1.8µM* | B: 2% | C: 2% | D: 7% | E: -14% | F: 6 | G: -9% | H: -4% | I: 2.6µM*

compound: COc1ccc(NS(=O)(=O)c2ccc(NC(C)=O)cc2)c(OC)c1
  A: 8% | B: 0% | C: 2% | D: 8% | E: 5% | F: -18 | G: x | H: x | I: x

compound: CCOC(=O)[C@]12CCCCC/C=C\1N(CCc1ccc(Cl)cc1)C(=O)[C@H]2CC(=O)N1CCOCC1
  A: x | B: x | C: x | D: x | E: x | F: 1 | G: x | H: x | I: x

compound: CCC(C)NC(=O)c1ccc2nc(-c3cccs3)c(-c3cccs3)nc2c1 (stereo unspecified)
  A: -29% | B: x | C: x | D: x | E: 0% | F: x | G: x | H: x | I: x

# Of the compounds above, these contain a nitro group on carbon:
# Field names: A = Nrf2 block; B = Nrf2 activator; C = GALK inhibitor; D = miR-21 reporter; E = A549 tox-1; F = PI4K2A inh; G = FLuc counter 3; H = A549 tox-2; I = ARE-Fluc inh
compound: COc1ccc(CCN(C)c2ccc(S(=O)(=O)N3CCCC3)cc2[N+](=O)[O-])cc1OC
  A: u | B: 4% | C: -2% | D: -4% | E: -20% | F: -1 | G: x | H: x | I: x

compound: COc1ccc(CN(C)c2ccc(S(=O)(=O)N3CCN(C)CC3)cc2[N+](=O)[O-])cc1OC
  A: 1.3µM* | B: -1% | C: x | D: x | E: -3% | F: 4 | G: -28% | H: 2% | I: u

# (cont.)
# Field names: A = Nrf2 block; B = Nrf2 activator; C = GALK inhibitor; D = miR-21 reporter; E = A549 tox-1; F = PI4K2A inh; G = FLuc counter 3; H = A549 tox-2; I = ARE-Fluc inh
compound: CC[n+]1c(/C=C/N(C)c2ccccc2)oc2ccc(F)cc21
  A: 6.5µM* | B: 7% | C: 1% | D: u | E: -23% | F: -18 | G: 2% | H: -13% | I: 5.8µM*

compound: CCc1nnc(NC(=O)Cc2ccc(OC)c(OC)c2)s1
  A: -2% | B: 0% | C: -3% | D: -1% | E: 0% | F: -2 | G: x | H: x | I: x

compound: CCc1ccccc1OCC(=O)Nc1nc(-c2cccnc2)cs1
  A: 7.3µM* | B: 5% | C: 1% | D: 18% | E: u | F: 0 | G: -19% | H: u | I: u

compound: COc1ccc(CC(=O)Nc2nnc(C(C)(C)C)s2)cc1OC
  A: 9.2µM* | B: 6% | C: -3% | D: 3% | E: -24% | F: -15 | G: -1% | H: -3% | I: 3%

# High-throughput results from PubChem.
